Target: N-type calcium channel (α1B (Cav2.2), β3 and α2δ subunits) (Homo sapiens, UniProt Q00975)
Experiment: Functional Assay: Antagonism of N-Type Calcium Channel (FDSS calcium mobilization, KCl depolarization)
Type: cell-based
Details: read-out: FDSS IC50; HEK cell line, 50 mM KCl depolarization, six-point concentration-response
Description: A stable cell line (HEK parent) co-expressing the α1B (Cav2.2), β3 and α2δ subunits of the N-type calcium channel subunits was used. These cells were routinely grown as monolayers in low glucose-containing Dulbecco's Modified Eagle Medium supplemented with 10% FBS, 2 mM L-glutamine, 100 I.U./mL penicillin, 100 μg/mL streptomycin, 400 μg/mL G418 and 200 μg/mL Zeocin (split ratio=1:5). Cells were maintained in 5% CO2 at 37° C. Compounds of Formula (I) were prepared as 10 mM stocks in DMSO from neat compound, if available. Otherwise, the 5 or 10 mM DMSO stock solutions provided in-house were used.
Calcium mobilization responses to KCl depolarization were evaluated by measuring the intensity of calcium-mediated fluorescent signal in the presence of BD Calcium Assay Dye (BD Biosciences, Franklin Lakes, N.J., U.S.A.), utilizing a Functional Drug Screening System (FDSS) by Hamamatsu Corporation (Bridgewater, N.J. U.S.A.).
Twenty-four hr prior to assay, cells were seeded in clear-base poly-D-lysine-coated 384-well plates (BD Biosciences) at a density of 5,000 cells per well in culture medium and grown overnight in 5% CO2 at 37° C. […] Utilizing the FDSS, cells were exposed to representative compounds of Formula (I) at varying concentrations, and intracellular calcium was measured for 5 min prior to the addition of 50 mM KCl for an additional 3 min of measurement. […]

By UniProt entry, the sequences of proteins in these tests, tags left out. Where a name states a change or a piece, a line headed by the entry shows the natural chain unless it says otherwise.
UniProt Q00975, whole entry, looked up: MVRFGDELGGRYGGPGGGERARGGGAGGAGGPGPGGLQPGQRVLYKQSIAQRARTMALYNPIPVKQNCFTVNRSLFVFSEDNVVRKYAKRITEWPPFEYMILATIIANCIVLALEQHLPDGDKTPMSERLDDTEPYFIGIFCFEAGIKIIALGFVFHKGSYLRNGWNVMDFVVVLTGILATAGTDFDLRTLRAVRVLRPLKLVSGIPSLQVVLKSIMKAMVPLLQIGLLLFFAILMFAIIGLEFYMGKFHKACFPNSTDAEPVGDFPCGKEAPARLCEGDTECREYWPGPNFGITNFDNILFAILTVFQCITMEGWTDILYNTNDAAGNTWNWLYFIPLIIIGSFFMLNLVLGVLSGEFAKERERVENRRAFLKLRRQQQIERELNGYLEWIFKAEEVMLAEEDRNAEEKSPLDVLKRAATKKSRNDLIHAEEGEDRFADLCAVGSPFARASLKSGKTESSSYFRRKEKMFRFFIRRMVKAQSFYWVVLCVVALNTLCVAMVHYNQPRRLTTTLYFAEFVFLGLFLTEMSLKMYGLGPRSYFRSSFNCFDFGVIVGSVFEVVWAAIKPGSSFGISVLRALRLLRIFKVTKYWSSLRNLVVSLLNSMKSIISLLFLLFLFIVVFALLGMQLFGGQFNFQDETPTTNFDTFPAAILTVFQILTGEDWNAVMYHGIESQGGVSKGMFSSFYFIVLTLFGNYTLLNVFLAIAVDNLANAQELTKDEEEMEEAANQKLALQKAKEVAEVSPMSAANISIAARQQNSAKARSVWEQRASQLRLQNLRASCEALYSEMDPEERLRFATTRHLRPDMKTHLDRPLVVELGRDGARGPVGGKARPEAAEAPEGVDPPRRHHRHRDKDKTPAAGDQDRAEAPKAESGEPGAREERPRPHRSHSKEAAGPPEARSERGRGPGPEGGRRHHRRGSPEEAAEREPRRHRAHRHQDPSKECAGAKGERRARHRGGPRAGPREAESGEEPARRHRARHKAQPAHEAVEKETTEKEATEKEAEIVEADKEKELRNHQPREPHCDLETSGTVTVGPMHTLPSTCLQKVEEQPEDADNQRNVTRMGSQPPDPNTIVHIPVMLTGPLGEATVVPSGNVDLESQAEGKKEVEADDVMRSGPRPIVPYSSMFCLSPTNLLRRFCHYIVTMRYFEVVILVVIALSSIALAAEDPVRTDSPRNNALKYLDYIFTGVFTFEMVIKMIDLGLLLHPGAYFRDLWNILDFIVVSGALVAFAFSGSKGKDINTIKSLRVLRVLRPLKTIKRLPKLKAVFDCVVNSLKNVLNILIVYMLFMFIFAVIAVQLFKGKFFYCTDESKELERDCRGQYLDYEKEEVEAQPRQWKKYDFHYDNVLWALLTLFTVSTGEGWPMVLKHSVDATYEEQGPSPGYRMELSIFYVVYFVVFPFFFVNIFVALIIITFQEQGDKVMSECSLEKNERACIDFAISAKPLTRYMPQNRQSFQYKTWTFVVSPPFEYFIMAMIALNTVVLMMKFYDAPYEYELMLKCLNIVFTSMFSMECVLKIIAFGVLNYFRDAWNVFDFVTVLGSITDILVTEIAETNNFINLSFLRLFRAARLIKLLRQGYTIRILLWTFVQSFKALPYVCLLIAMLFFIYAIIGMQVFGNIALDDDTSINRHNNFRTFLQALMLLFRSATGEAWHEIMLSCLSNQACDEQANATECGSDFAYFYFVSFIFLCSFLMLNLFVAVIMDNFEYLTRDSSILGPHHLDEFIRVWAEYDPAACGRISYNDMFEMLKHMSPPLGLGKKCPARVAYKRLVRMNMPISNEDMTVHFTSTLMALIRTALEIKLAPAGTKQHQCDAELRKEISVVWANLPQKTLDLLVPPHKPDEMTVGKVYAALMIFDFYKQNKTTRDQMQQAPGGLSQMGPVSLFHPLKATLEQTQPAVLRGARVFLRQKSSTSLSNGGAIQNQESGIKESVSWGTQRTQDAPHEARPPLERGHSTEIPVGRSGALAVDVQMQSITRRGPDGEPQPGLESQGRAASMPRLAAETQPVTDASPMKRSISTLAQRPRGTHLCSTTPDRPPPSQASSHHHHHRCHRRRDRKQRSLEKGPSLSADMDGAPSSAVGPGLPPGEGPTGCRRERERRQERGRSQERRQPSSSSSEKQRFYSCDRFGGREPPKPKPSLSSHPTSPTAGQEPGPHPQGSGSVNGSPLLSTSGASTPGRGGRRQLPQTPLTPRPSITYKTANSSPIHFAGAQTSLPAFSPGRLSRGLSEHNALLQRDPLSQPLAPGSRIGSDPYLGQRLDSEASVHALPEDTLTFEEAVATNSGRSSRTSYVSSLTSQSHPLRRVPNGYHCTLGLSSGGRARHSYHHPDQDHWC

SMILES	IC50
COc1ccccc1-n1nc2c(c1-c1ccc(Cl)cc1)C[C@H](OCC1CCC1)C2 [Compound 84, (5S)-3-(4-chlorophenyl)-5-(cyclobutylmethoxy)-2-(2-methoxyphenyl)-2,4,5,6-tetrahydrocyclopenta[c]pyrazole]	60 nM
COc1ccccc1-n1nc2c(c1-c1ccc(Cl)cc1)CC1(C2)O[C@H]2CCCC[C@H]2O1 (stereo partly drawn) [Compound 112, (3aR,7aS)-3′-(4-chlorophenyl)-2′-(2-methoxyphenyl)-2′,3a,4,5,6,6′,7,7a-octahydro-4′H-spiro[1,3-benzodioxole-2,5′-cyclopenta[c]pyrazole]]	18 nM
